This data set can be described thus: Solubility of testosterone undecanoate in excipients and SNEDDS mixtures. Conditions: testosterone undecanoate dissolved to saturation in the listed excipient or mixture; stirred overnight at room temperature (solid fats 40° C.); HPLC.

The text below walks through data of US9925200B2, “Stable formulations of testosterone undecanoate” (Merck Sharp & Dohme B.V., priority 2014, dated 2018).

With sorbitan oleate [SPAN 80], the “Solubility” value turned out to be 130.4 mg/mL.
